Reference: patent publication US20240317741A1, “NAPHTHYRIDINE DERIVATIVE AS ATR INHIBITOR AND METHOD FOR PREPARING SAME” (WIGEN BIOMEDICINE TECHNOLOGY (SHANGHAI) CO., LTD., priority 2021, published 2024)

Tests used:
[1] = test system: MIA PaCa-2 cells; experiment: In-vitro anti-proliferative activity against MIA PaCa-2 cells; type: cell-based; details: Homo sapiens, 72 h after dosing, intracellular ATP content
Method: MIA PaCa-2 cells were seeded on a 384-well plate at 3000 cells/well. After overnight adherence culture, DMSO or the compounds serially diluted 1:5 from 5 μM were added. […] The inhibition percentage of viable cells by the compounds was calculated by comparing with the DMSO group, and the IC50 value was calculated.

[2] = test system: Human colon cancer HT29 cells; experiment: In vivo efficacy in HT-29 model, alone and with gemcitabine; design: species or system nude mouse
Method: After being subcultured, the cells were collected when they reached the desired amount. 1×10^7 HT29 cells were injected into the left dorsal side of each nude mouse, and the animals were randomly grouped for administration after tumors grew to 100-200 mm^3. The groups were as follows: a solvent control group of 6 mice, a single drug group of 15 mg/kg gemcitabine (GMC), and a combination group of 15 mg/kg gemcitabine and a compound. Gemcitabine was administered intraperitoneally with PBS as a vehicle once a week. The compounds were administered 3 days a week and interrupted for 4 days (3 on/4 off), for 21 consecutive days, and the vehicle was a 0.5% MC suspension containing 1% tween-80. On Tuesday and Thursday each week, tumor volumes and body weight of the mice were measured, and the nude mice were sacrificed on day 21 after the administration. […] The toxicity of the compounds was evaluated according to the body weight of the mice.

[3] = test system: MIA PaCa-2 cells; experiment: In-vitro anti-proliferative activity in combination with gemcitabine against MIA PaCa-2 cells; type: cell-based; details: in combination with 20 nM gemcitabine, 72 h after dosing
Method: MIA PaCa-2 cells were seeded on a 384-well plate at 3000 cells/well, and 20 nM gemcitabine was added. After overnight adherence culture, DMSO or the compounds serially diluted 1:5 from 100 nM were added. […] The inhibition percentage of viable cells by the compounds was calculated by comparing with the DMSO group, and the IC50 value was calculated.

[4] = test system: Human colon cancer LOVO cells; experiment: In vivo efficacy in LoVo model; design: species or system nude mouse; details: mouse, po, 20 mg/kg
Method: After being subcultured, the cells were collected when they reached the desired amount. 1×10^7 LOVO cells were injected into the left dorsal side of each nude mouse, and the animals were randomly grouped for administration after tumors grew to 100-200 mm^3. The groups were as follows: a solvent control group of 8 mice and a compound group of 8 mice. The compounds were administered orally 3 days a week and interrupted for 4 days, for 21 consecutive days. The vehicle was a 0.5% MC suspension containing 1% tween-80. On Tuesday and Thursday each week, tumor volumes and body weight of the mice were measured, and the nude mice were sacrificed on day 21 after the administration. […] The toxicity of the compounds was evaluated according to the body weight of the mice.

Row | Compound | IC50 [1] [nM] | TGI(%) ([2]; mouse, in vivo) | TGI(%) ([2]; mouse, in vivo, po, 20 mg/kg) | IC50 [3] [nM] | TGI(%) [4] [%] | TGI(%) ([2]; HT-29 model in nude mice, single agent, 20 mpk BID PO, 3on/4off, day 21)
1 | C[C@@H]1COCCN1c1cc(-c2ccnn2C)c2ccnc(-c3ccn[nH]3)c2n1 [BAY1895344, reference compound] | < 1000 | 74.3 | 53.1 | 1.71 | 71.2 | 
2 | (R)-1-(2-(3-methylmorpholino)-8-(1H-pyrazol-5-yl)-1,7-naphthyridin-4-ylmethyl)cyclohexane-1-carbonitrile [Compound 25] |  |  |  |  |  | 53.1
